Among the data in patent publication EP4745137A1 (Gluetacs Therapeutics (Shanghai) Co., Ltd., priority 2023, dated 2025) are IC50 values, retold here.

Where two headings read alike, the source gives them in different places. Some results are limits rather than exact numbers.

For test [1], the system named is Human breast cancer cells (MDA-MB-231). Description: Tumor cell proliferation inhibition (CellTiter-Meiluncell Luminescent Cell Viability Assay), MDA-MB-231. The note with it: MDA-MB-231, 96 h, read-out: inhibitory activity (IC50, nM) against tumor cells proliferation, MDA-MB-231.
In test [2] the test system is SR. Description: Tumor cell proliferation inhibition (CellTiter-Meiluncell Luminescent Cell Viability Assay), SR. Conditions: Homo sapiens, read-out: inhibitory activity (IC50, nM) against tumor cells proliferation, SR.
Test [3] concerns MM.1S. Description: Tumor cell proliferation inhibition (CellTiter-Meiluncell Luminescent Cell Viability Assay), MM.1S. The note with it: Homo sapiens, MM1.S, read-out: inhibitory activity (IC50, nM) against tumor cells proliferation, MM.1S.
Test [4] relates to NCI-H1975. Description: Tumor cell proliferation inhibition (CellTiter-Meiluncell Luminescent Cell Viability Assay), NCI-H1975. The note with it: Homo sapiens.
Test [5] has as its system MM.1R. Description: Tumor cell proliferation inhibition (CellTiter-Meiluncell Luminescent Cell Viability Assay), MM.1R. The note with it: Homo sapiens, 96 h, read-out: inhibitory activity (IC50, nM) against tumor cells proliferation, MM.1R.
Test [6] concerns Human acute T lymphocytic leukemia cells (Molt-4). Description: Tumor cell proliferation inhibition (CellTiter-Meiluncell Luminescent Cell Viability Assay), Molt-4.
For test [7], the system named is MGC803. Description: Tumor cell proliferation inhibition (CellTiter-Meiluncell Luminescent Cell Viability Assay), MGC803. Conditions: Homo sapiens, MGC-803, 96 h, read-out: inhibitory activity (IC50, nM) against tumor cells proliferation, MGC803.
Test [8] concerns Jurkat. Description: Tumor cell proliferation inhibition (CellTiter-Meiluncell Luminescent Cell Viability Assay), Jurkat. The note with it: Homo sapiens, read-out: inhibitory activity (IC50, nM) against tumor cells proliferation, Jurkat.
The test system of test [9] is CCRF-CEM. Description: Tumor cell proliferation inhibition (CellTiter-Meiluncell Luminescent Cell Viability Assay), CCRF-CEM. The note with it: Homo sapiens, read-out: inhibitory activity (IC50, nM) against tumor cells proliferation, CCRF-CEM.
Test [10] deals with MV-4-11. Description: Tumor cell proliferation inhibition (CellTiter-Meiluncell Luminescent Cell Viability Assay), MV-4-11. Conditions: Homo sapiens, MV4-11, read-out: inhibitory activity (IC50, nM) against tumor cells proliferation, MV-4-11.
Test [11] concerns Vcap. Description: Tumor cell proliferation inhibition (CellTiter-Meiluncell Luminescent Cell Viability Assay), Vcap. Conditions: Homo sapiens, 96 h, read-out: inhibitory activity (IC50, nM) against tumor cells proliferation, Vcap.
The subject of test [12] is SW620. Description: Tumor cell proliferation inhibition (CellTiter-Meiluncell Luminescent Cell Viability Assay), SW620. Conditions: Homo sapiens, SW-620, 96 h, read-out: inhibitory activity (IC50, nM) against tumor cells proliferation, SW620.
Test [13] has as its system TMD8. Description: Tumor cell proliferation inhibition (CellTiter-Meiluncell Luminescent Cell Viability Assay), TMD8. The note with it: Homo sapiens.
The test system of test [14] is CAL-62. Description: Tumor cell proliferation inhibition (CellTiter-Meiluncell Luminescent Cell Viability Assay), CAL-62. The note with it: Homo sapiens, CAL-62, 96 h, read-out: inhibitory activity (IC50, nM) against tumor cells proliferation, CAL-62.

`Nc1cccc2c1CN(C1CCC(=O)NC1=O)C2=O` (centres unmarked) [lenalidomide, reference compound]: the IC50 was above 10000 nM in test [1]; above 10000 nM in [2] (96 h); above 10000 nM in test [2]; 1000 to 5000 nM in [3]; above 10000 nM in test [4] (NCI-H1975, 96 h, read-out: inhibitory activity (IC50, nM) against tumor cells proliferation, H1975); above 10000 nM in test [4] (NCI-H1975, read-out: inhibitory activity (IC50, nM) against tumor cells proliferation, H1975). The IC50 in [5] was above 10000 nM; in test [6] (MOLT-4, 96 h, read-out: inhibitory activity (IC50, nM) against tumor cells proliferation, Molt 4), above 10000 nM; in test [6] (MOLT-4, read-out: inhibitory activity (IC50, nM) against tumor cells proliferation, Molt-4), above 10000 nM; in test [7] it was above 10000 nM; in test [8] (96 h), above 10000 nM; in test [8], above 10000 nM. The IC50 was above 10000 nM in test [9] (96 h); above 10000 nM in [9]; above 10000 nM in test [10]; above 10000 nM in [11]; above 10000 nM in test [12]; above 10000 nM in test [13] (TMD8, 96 h, read-out: inhibitory activity (IC50, nM) against tumor cells proliferation, TMD8). Also, the IC50 in test [13] (TMD8, read-out: inhibitory activity (IC50, nM) against tumor cells proliferation, TMD8) was above 10000 nM; in test [14], above 10000 nM.
